We go through 1 compound from patent EP0433084A2, “Use of aromatese inhibitors for the reversal of female sexual phenotype in poultry” (MERCK & CO. INC., priority 1989, dated 1991).

Series [1] concerns Line 67 White Leghorn embryos. The conditions noted are these: in vivo. The method, then: The inhibitor was dissolved in saline at concentrations ranging form 1 mg/ml to 100 mg/ml and the injection volume ranged from 20 µl to 100 µl producing doses of 20 µg to 10 mg. Injections were made with a 23 G x 1 inch needle. A light source was used to orient the eggs and the injection is made under the air sac into the egg white surrounding the developing embryo. The hole was sealed with Scotch tape and the eggs were placed in a humidified, rocking incubator. At day fourteen of incubation, the embryos were removed form their shells and dissected to observe development of the gonads.

Series [2] has as its system gonads from control males and treated females. The conditions noted are these: in vivo.

Counter-ions that a name gives are not always drawn.

Compound `N#Cc1ccc(C2CCCc3cncn32)cc1` (racemic) [± 5-(p-cyanophenyl)-5,6,7,8-tetrahydroimidazo [1,5-α] pyridine hydrochloride] registered a hatched in series [1] of 75. In series [2], the “spermatogenesis in treated males” value is listed as “normal spermatogenesis”.
